The values that follow are results of earlier work, collected in patent US20250262209A1, “TREATMENT OF GASTROINTESTINAL DISEASES” (Aclipse Two, Inc., priority 2022, published 2025).

Sequences of proteins named here, by UniProt entry; tags and fusion partners are left off.
UniProt Q07869, whole entry, species assumed: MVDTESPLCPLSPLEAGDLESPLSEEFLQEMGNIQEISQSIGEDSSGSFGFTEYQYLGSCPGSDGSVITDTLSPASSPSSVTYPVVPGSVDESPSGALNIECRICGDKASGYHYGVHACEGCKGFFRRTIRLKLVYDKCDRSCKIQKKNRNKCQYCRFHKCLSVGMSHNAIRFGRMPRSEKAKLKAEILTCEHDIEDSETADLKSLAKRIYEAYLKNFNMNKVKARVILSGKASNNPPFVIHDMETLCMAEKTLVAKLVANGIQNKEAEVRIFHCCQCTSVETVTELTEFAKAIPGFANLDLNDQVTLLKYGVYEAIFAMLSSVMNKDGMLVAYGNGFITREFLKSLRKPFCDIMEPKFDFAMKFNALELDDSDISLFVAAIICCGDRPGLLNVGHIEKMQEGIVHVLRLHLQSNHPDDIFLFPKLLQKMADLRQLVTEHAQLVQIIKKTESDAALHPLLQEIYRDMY

The data set addresses PPARα (Homo sapiens, UniProt Q07869). To be noted: background statement; cited from earlier work.

Regarding `CN(CCOc1ccc(CC2SC(=O)NC2=O)cc1)c1ccccn1` (racemic) [rosiglitazone, (RS)-5-[4-(2-[methyl(pyridin-2-yl)amino]ethoxy)benzyl]thiazolidine-2,4-dione], the PPARα-binding action result was “no PPARα-binding action”.
